Data: patent US20250313575A1, “MACROCYCLES AS LRRK2 INHIBITORS, PHARMACEUTICAL COMPOSITIONS, AND USES THEREOF” (Merck Sharp & Dohme LLC, priority 2022, published 2025)

The chains behind the UniProt entries cited, without tags or fusion partners. Residues count along the entry.
UniProt Q5S007, 970-2527 G2019S limits assumed: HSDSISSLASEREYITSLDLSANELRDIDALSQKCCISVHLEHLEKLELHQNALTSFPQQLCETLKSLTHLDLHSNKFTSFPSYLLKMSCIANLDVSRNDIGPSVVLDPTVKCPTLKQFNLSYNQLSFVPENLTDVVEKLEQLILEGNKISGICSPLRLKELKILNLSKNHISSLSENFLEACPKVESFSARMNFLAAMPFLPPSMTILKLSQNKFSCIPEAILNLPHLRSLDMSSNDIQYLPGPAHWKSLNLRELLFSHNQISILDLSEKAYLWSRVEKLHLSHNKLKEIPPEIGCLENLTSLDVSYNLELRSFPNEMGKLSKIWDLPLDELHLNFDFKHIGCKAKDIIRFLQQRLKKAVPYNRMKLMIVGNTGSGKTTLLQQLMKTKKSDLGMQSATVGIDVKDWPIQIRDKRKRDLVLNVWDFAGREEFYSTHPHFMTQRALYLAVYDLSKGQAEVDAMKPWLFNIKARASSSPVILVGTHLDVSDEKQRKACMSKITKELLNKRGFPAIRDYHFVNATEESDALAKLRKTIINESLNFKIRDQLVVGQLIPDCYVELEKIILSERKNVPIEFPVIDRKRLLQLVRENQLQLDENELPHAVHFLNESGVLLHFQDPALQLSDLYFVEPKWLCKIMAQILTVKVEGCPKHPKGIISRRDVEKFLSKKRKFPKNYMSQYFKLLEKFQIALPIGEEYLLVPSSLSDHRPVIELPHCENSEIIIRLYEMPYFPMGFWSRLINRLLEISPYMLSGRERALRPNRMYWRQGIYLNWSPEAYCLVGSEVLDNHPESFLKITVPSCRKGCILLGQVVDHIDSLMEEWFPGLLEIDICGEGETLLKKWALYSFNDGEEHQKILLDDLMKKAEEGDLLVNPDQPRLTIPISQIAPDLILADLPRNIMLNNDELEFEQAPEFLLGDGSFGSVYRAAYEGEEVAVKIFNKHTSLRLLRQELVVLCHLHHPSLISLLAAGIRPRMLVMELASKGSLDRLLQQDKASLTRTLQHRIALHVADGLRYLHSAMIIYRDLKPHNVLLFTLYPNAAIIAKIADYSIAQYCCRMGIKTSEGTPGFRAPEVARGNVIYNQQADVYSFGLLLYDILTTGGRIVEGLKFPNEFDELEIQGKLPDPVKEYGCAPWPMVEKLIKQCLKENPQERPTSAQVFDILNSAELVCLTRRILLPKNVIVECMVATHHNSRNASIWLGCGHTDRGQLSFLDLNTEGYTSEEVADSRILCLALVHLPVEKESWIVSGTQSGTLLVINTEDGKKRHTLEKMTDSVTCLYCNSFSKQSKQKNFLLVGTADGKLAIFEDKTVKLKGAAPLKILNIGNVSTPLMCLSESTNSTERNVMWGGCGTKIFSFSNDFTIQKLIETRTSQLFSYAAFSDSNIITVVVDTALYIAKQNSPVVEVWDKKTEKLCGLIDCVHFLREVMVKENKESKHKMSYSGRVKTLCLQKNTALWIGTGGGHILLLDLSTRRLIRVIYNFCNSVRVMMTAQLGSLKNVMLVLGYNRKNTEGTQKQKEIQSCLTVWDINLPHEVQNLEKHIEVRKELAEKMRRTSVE

Target: GST-tagged truncated human mutant G2019S LRRK2 (Homo sapiens (Human), UniProt Q5S007, G2019S)
Experiment: LRRK2 G2019S Km ATP LanthaScreen assay
Details: G2019S LRRK2, 134 μM ATP (Km ATP), LRRKtide substrate
Method: Unless otherwise noted, all reactions are magnetically allowed to stir, diethyl ether used in the experiments described below is Fisher ACS certified material stabilized with BHT, and “concentrated” and/or “solvent removed under reduced pressure” means evaporating the solvent from a solution or mixture using a rotary evaporator or vacuum pump. Unless otherwise noted, flash chromatography is carried out on a Teledyne Isco (Lincoln, NE), Analogix (Burlington, WI), or Biotage (Stockholm, SWE) automated chromatography system using a commercially available cartridge as the column. […]
The LRRK2 kinase activity reported herein as IC50 values was determined with LanthaScreen™ technology from Life Technologies Corporation (Carlsbad, CA) using GST-tagged truncated human mutant G2019S LRRK2 in the presence of the fluorescein-labeled peptide substrate LRRKtide, also from Life Technologies. […] Upon completion, the assay was stopped and phosphorylated substrate detected with a terbium (Tb)-labeled anti-pERM antibody (cat. no. PV4898). […] After an incubation of 1 h at room temperature, the plate was read on an EnVision multimode plate reader (Perkin Elmer, Waltham, MA) with an excitation wavelength of 337 nm (Laser) and a reading emission at both 520 and 495 nm. […]

Row | Compound | LRRK2 pIC50
1 | CC(C)(CO)c1nn(C2CCC2)c2c1OC[C@@H]1CC[C@H]1Nc1nc(ncc1C(F)(F)F)N2 (relative stereo) | 6.62
2 | CC(C)(CO)c1nn(C2CCC2)c2c1OC[C@H]1CC[C@@H]1Nc1nc(ncc1C(F)(F)F)N2 (relative stereo) | 10.03
